Sequences of proteins named here, by UniProt entry; tags and fusion partners are left off.
UniProt P10635, whole entry: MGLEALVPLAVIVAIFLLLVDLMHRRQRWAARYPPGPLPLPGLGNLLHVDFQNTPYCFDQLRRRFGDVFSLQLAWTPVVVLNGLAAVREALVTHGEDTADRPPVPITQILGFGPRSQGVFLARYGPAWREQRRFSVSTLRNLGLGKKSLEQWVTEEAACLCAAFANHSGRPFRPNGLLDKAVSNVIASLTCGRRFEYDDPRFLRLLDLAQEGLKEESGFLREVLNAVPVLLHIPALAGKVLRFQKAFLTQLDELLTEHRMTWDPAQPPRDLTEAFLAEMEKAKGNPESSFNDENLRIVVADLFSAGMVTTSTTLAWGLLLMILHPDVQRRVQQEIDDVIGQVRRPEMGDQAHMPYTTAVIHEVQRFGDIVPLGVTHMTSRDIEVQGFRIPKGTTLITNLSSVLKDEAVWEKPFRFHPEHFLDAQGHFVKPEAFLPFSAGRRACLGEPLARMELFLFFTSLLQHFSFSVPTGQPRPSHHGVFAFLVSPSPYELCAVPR
UniProt P08684, whole entry: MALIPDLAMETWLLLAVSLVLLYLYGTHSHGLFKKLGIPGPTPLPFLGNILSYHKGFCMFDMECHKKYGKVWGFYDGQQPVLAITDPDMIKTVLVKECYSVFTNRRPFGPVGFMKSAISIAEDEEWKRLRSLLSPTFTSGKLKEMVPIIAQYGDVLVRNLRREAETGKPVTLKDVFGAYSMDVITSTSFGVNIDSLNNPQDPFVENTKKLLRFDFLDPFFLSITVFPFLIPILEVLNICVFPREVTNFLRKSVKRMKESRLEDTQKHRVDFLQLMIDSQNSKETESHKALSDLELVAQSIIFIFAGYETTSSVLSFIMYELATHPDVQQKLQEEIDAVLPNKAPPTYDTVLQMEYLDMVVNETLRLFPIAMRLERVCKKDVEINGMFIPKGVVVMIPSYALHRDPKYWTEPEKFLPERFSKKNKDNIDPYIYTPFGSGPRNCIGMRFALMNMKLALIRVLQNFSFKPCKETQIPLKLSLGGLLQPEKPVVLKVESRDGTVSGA
UniProt P10632, whole entry: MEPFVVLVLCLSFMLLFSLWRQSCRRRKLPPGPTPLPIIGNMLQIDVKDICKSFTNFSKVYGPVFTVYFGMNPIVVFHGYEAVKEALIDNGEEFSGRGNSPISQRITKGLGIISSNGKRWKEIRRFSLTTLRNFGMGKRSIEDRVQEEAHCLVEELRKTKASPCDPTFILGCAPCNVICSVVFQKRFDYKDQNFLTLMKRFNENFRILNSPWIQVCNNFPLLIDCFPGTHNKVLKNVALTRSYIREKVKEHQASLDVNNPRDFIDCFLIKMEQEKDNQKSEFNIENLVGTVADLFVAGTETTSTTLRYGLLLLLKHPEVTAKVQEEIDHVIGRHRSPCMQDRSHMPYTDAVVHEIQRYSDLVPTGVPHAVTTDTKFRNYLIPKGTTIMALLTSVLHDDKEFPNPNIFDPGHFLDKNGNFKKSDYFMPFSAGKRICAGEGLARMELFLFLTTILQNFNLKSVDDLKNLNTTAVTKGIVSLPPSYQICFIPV
UniProt P05177, whole entry: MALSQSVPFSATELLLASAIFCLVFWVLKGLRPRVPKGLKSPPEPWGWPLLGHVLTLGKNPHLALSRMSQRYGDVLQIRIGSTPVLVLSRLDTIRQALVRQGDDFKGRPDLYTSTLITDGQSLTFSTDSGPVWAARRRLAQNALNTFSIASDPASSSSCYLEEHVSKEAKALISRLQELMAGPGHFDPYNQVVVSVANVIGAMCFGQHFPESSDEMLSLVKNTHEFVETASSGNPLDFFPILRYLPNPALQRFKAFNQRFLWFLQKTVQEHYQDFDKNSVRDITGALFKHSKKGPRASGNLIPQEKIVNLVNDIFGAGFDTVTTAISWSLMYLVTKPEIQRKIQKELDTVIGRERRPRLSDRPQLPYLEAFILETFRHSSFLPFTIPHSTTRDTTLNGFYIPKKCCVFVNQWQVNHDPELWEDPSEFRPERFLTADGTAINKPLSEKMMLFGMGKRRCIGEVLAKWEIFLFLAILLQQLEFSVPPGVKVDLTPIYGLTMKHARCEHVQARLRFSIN

In ChEMBL document CHEMBL3856233, “Identification of (R)-(2-Chloro-3-(trifluoromethyl)phenyl)(1-(5-fluoropyridin-2-yl)-4-methyl-6,7-dihydro-1H-imidazo[4,5-c]pyridin-5(4H)-yl)methanone (JNJ 54166060), a Small Molecule Antagonist of the P2X7 receptor” (J Med Chem, 2016):

What was measured:
Cytochrome P450 2D6 = Cytochrome P450 2D6 (Homo sapiens, UniProt P10635); assay: Inhibition of CYP2D6 in human liver microsomes using dextromethorphan as substrate after 15 mins by LC/MS/MS analysis; assay type: ADME
[1] = human, microsomes, 1 h, 1 µM
[2] = rat, microsomes, 1 h, 1 µM
Cytochrome P450 3A4 = Cytochrome P450 3A4 (Homo sapiens, UniProt P08684); assay: Inhibition of CYP3A4 in human liver microsomes using midazolam as substrate assessed as reduction in 4-OH-midazolam formation by LC/MS/MS analysis; assay type: ADME, tissue-based
Cytochrome P450 2C8 = Cytochrome P450 2C8 (Homo sapiens, UniProt P10632); assay: Inhibition of CYP2C8 in human liver microsomes using paclitaxel as substrate after 15 mins by LC/MS/MS analysis; assay type: ADME
Cytochrome P450 1A2 = Cytochrome P450 1A2 (Homo sapiens, UniProt P05177); assay: Inhibition of CYP1A2 in human liver microsomes using phenacetin as substrate after 15 mins by LC/MS/MS analysis; assay type: ADME

Compound: C[C@@H]1c2ncn(-c3ccc(F)cn3)c2CCN1C(=O)c1cccc(C(F)(F)F)c1Cl
- IC50 (Cytochrome P450 2D6): > 10 µM
- ERH [1]: 0.35
- ERH [2]: 0.64
- IC50 (Cytochrome P450 3A4): > 10 µM

Compound: C[C@@H]1c2ncn(-c3ccc(F)cc3)c2CCN1C(=O)c1cccc(C(F)(F)F)c1Cl
- IC50 (Cytochrome P450 2C8): > 10 µM
- IC50 (Cytochrome P450 1A2): > 10 µM
